Measurements from publication PMC10046313, “Novel scFv against Notch Ligand JAG1 Suitable for Development of Cell Therapies toward JAG1-Positive Tumors” (Biomolecules, 2023).

The chains behind the UniProt entries cited, without tags or fusion partners. Residues count along the entry.
UniProt P78504, 34-1218: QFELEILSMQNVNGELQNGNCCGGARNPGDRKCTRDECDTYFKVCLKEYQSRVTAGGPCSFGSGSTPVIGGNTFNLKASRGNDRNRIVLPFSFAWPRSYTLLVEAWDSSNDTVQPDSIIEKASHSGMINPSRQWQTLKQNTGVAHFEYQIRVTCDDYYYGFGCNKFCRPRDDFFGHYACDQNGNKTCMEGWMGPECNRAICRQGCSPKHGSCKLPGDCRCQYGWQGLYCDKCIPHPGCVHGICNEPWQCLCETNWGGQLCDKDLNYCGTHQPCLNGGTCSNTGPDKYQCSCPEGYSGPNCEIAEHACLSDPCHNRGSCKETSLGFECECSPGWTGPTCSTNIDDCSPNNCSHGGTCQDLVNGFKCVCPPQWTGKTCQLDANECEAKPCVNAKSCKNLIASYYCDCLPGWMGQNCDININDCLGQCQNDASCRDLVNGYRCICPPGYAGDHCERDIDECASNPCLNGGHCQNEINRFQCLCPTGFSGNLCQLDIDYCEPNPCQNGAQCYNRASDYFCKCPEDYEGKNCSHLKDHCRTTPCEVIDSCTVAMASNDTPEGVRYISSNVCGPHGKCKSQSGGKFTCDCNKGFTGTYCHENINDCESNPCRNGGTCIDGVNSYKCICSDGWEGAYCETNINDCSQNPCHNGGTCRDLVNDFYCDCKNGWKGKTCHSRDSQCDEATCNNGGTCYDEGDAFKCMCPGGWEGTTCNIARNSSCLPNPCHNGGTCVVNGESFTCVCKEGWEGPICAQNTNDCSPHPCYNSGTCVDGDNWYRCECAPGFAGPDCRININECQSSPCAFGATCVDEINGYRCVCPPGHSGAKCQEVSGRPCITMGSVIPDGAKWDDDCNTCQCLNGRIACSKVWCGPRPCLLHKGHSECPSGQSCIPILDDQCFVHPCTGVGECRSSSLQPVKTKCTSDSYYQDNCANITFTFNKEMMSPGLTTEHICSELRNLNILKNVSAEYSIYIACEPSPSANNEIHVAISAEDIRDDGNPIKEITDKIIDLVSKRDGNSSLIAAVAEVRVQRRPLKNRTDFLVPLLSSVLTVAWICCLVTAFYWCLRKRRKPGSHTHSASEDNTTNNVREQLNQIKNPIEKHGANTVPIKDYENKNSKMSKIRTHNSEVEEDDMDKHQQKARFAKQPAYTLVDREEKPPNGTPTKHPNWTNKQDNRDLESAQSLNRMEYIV
UniProt P78504, 34-1067: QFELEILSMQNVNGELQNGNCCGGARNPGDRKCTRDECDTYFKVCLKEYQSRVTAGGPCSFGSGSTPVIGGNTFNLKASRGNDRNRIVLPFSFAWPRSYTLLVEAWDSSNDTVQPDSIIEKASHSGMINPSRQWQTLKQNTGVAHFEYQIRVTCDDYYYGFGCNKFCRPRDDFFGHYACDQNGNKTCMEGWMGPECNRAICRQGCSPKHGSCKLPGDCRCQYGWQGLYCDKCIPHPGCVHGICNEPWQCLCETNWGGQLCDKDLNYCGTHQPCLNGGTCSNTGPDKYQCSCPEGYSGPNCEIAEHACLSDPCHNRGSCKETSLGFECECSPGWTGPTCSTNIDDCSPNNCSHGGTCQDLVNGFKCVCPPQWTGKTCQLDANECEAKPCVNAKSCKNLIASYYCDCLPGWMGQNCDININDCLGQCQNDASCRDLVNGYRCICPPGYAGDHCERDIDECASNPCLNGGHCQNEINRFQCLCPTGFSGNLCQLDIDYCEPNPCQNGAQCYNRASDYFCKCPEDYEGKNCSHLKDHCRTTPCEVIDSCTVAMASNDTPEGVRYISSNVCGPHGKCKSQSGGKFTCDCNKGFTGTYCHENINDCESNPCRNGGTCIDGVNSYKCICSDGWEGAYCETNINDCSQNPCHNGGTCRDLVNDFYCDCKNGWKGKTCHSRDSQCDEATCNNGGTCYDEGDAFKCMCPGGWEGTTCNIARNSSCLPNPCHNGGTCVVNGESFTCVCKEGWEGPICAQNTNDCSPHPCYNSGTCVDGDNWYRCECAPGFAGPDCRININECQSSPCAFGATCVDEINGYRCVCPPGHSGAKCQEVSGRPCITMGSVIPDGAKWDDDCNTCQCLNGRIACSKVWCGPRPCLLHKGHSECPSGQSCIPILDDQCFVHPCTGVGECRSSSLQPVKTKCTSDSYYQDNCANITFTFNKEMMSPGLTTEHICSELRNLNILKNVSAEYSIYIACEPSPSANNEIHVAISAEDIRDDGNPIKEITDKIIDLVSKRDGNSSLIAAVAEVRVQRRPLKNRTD
UniProt O00548, 18-723: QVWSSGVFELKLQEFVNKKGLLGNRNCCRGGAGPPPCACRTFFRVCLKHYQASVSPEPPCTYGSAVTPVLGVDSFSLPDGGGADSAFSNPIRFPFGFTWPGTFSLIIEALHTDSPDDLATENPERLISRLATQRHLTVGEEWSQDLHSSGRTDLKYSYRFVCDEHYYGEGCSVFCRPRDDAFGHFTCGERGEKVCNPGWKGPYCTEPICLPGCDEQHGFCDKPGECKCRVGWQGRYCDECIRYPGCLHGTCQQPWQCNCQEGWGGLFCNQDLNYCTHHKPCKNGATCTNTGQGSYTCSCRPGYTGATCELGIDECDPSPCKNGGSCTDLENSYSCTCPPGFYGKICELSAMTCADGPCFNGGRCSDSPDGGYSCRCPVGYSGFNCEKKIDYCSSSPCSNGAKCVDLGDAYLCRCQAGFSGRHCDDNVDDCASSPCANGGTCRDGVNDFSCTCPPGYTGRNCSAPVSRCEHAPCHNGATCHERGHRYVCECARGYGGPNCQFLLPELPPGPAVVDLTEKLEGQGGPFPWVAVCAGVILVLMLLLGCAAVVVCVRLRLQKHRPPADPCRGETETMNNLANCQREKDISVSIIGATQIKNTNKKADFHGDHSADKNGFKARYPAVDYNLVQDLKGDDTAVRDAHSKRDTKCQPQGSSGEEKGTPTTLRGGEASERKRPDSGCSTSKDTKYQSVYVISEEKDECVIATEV
UniProt Q9QXX0, 34-1218: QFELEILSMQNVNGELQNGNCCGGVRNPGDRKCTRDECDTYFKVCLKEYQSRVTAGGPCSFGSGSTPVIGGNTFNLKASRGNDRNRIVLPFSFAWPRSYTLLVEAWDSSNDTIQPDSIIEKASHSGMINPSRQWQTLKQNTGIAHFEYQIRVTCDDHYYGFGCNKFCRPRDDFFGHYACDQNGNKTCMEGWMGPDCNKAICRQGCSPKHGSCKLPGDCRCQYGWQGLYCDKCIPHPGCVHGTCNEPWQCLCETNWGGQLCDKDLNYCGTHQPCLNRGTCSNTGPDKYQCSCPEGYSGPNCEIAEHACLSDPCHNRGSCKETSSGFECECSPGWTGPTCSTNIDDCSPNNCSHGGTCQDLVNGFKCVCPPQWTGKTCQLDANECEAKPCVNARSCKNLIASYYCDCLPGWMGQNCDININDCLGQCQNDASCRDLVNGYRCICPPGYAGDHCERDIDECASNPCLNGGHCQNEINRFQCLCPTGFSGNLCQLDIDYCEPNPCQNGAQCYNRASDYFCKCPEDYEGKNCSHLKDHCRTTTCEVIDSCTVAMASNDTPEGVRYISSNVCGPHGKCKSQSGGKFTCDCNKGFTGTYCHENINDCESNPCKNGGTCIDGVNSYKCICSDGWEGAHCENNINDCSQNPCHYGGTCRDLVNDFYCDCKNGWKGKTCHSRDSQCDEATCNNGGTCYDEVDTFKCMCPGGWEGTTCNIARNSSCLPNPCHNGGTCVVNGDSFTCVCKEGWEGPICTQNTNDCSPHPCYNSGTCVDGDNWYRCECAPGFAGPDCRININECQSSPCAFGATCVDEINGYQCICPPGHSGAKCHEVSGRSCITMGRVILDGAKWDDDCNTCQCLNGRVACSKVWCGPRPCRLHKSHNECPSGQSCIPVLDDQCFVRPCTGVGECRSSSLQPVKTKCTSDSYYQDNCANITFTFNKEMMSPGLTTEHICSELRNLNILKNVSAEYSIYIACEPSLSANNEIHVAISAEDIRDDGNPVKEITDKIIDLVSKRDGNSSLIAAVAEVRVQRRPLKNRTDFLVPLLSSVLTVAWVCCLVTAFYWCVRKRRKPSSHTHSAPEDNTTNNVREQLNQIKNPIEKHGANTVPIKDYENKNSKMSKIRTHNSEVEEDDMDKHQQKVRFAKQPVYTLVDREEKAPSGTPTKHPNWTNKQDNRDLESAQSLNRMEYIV
UniProt Q9Y219, 24-1238: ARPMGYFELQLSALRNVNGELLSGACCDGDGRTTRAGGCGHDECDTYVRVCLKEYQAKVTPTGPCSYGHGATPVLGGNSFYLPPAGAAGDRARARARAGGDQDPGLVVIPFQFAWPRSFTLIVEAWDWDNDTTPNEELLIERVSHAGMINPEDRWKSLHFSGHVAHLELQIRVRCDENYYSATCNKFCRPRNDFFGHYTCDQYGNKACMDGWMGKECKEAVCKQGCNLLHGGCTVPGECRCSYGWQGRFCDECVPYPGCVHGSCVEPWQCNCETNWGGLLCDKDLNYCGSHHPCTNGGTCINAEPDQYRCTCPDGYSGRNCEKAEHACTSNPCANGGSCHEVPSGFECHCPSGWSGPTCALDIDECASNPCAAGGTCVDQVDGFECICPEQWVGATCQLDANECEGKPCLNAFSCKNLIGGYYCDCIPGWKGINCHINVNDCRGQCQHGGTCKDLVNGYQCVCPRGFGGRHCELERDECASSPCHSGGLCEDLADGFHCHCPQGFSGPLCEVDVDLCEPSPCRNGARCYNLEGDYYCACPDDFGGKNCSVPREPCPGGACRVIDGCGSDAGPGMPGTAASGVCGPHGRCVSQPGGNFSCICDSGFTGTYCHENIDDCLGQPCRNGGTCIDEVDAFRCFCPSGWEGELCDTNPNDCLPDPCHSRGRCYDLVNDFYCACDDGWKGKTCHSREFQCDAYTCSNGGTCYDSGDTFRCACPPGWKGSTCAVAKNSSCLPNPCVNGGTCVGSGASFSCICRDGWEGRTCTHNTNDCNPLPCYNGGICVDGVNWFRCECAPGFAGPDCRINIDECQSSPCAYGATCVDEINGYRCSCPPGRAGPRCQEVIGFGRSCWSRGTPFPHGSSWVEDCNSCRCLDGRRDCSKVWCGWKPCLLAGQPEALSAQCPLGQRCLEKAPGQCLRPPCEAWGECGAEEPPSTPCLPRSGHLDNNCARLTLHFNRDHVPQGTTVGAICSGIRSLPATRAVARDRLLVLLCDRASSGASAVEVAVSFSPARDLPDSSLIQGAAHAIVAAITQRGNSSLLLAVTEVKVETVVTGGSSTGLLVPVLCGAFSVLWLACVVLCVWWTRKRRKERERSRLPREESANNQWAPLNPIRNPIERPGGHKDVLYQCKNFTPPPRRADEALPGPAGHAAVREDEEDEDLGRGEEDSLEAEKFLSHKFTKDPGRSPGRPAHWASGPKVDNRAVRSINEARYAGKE
UniProt Q9NR61, 27-685: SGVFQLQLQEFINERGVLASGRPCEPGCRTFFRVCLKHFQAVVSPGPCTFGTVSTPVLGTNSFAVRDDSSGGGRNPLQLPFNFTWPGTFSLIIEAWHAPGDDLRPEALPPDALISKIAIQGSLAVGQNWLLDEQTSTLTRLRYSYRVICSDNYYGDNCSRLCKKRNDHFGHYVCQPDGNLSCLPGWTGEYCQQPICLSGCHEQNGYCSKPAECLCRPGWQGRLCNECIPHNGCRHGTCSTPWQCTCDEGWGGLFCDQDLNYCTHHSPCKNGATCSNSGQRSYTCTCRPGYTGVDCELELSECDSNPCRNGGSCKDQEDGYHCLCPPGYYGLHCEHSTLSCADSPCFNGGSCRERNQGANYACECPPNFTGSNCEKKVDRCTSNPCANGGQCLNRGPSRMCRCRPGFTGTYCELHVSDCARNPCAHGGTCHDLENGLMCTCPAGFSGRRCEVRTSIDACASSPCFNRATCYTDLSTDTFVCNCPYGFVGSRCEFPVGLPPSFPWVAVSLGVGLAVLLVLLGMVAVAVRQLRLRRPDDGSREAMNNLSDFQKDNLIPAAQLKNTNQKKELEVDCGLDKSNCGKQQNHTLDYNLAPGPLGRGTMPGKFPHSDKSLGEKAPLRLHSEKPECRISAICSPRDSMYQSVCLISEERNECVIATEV
UniProt Q9NYJ7, 27-618: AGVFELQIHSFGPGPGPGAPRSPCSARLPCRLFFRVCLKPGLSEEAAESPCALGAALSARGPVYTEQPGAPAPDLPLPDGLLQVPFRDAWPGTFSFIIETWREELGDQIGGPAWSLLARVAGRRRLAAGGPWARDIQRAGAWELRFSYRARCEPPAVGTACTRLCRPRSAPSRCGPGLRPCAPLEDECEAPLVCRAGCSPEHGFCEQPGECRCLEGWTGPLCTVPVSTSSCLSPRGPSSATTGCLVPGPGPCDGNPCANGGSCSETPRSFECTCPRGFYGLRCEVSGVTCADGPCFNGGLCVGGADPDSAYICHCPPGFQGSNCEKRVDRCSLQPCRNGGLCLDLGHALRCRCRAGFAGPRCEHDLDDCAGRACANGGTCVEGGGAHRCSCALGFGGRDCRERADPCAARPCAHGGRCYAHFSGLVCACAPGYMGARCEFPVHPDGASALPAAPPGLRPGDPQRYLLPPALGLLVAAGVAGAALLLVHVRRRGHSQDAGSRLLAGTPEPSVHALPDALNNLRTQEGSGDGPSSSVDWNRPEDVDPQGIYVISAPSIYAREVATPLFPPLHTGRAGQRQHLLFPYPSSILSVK

Tests used:
[1] = target: T1, endogenous JAG1 on HepG2 cells (Homo sapiens (HepG2), UniProt P78504); test: flow cytometry on cells; dose-response binding of Abs to CHO-k1/rhJAG1, CHO-k1/control and HepG2 cells; ice-cold PBS with 3% FBS; settings: one partner purified
T1 construct: JAG1, endogenous on human HepG2 cells (parental and HepG2/Ctr^ko); also called endogenous hJAG1; HepG2/Ctr^ko (JAG1^+); source: endogenous, on HepG2 cells

[2] = target: T2, recombinant human JAG1-ECD-Fc (Homo sapiens, UniProt P78504); test: ELISA; antigens immobilised in 96-well plates (5 µg/mL in PBS, 16 h, 4 °C); serial dilutions of Abs starting from 200 µg/mL; settings: both partners purified
T2 construct: JAG1, human; the complete extracellular domain; also called rhJAG1-ECD-Fc

[3] = target: T2, recombinant human JAG1-ECD-Fc; test: SPR; rhJAG1-ECD-Fc with anti-JAG1 Abs; details in the Supplementary Information; settings: both partners purified
recombinant human DLL1 = target: T3, recombinant human DLL1 (Homo sapiens, UniProt O00548); test: ELISA; antigens immobilised in 96-well plates (5 µg/mL in PBS, 16 h, 4 °C); serial dilutions of Abs starting from 200 µg/mL; settings: both partners purified
T3 construct: DLL1, human, recombinant; also called rhDLL1

recombinant murine JAG1 = target: T4, recombinant murine JAG1 (Mus musculus, UniProt Q9QXX0); test: as above; settings: both partners purified
T4 construct: JAG1, murine, recombinant; also called rmJAG1

recombinant human JAG2 = target: T5, recombinant human JAG2 (Homo sapiens, UniProt Q9Y219); test: as above; settings: both partners purified
T5 construct: JAG2, human, recombinant; also called rhJAG2

recombinant human DLL4 = target: T6, recombinant human DLL4 (Homo sapiens, UniProt Q9NR61); test: as above; settings: both partners purified
T6 construct: DLL4, human, recombinant; also called rhDLL4

recombinant human DLL3 = target: T7, recombinant human DLL3 (Homo sapiens, UniProt Q9NYJ7); test: as above; settings: both partners purified
T7 construct: DLL3, human, recombinant; also called rhDLL3

| EC50 [1] [nM] | EC50 [2] [nM] | Kd [3] [nM] | Binder | binding result (recombinant human DLL1) | binding result (recombinant murine JAG1) | binding result (recombinant human JAG2) | binding result (recombinant human DLL4) | binding result (recombinant human DLL3) |
| --- | --- | --- | --- | --- | --- | --- | --- | --- |
| 336 | 77.8 | 52.2 | anti-JAG1 monoclonal Ab J1.B5 (antibody, V domains shown) VH: EVQLLESGGGLVQPGGSLRLSCAASGFTFSSYAMSWVRQAPGKGLEWVSTIAGSGTATDYADSVKGRFTISRDNSKNTLYLQMNSLRAEDTAVYYCAKDTYAFDYWGQGTLVTVSS VL: DIQMTQSPSSLSASVGDRVTITCRASQSISSYLNWYQQKPGKAPKLLIYAASYLQSGVPSRFSGSGSGTDFTLTISSLQPEDFATYYCQQAYSAPSTFGQGTKVEIK | no binding (tested: starting from 200 µg/mL) | binds | no binding (tested: starting from 200 µg/mL) | no binding (tested: starting from 200 µg/mL) | no binding (tested: starting from 200 µg/mL) |
| 5.74 | 13.5 | 18.6 | anti-JAG1 monoclonal Ab J1.F1 (antibody, V domains shown) VH: EVQLLESGGGLVQPGGSLRLSCAASGFTFSSYAMSWVRQAPGKGLEWVSTISTSGDYTTYADSVKGRFTISRDNSKNTLYLQMNSLRAEDTAVYYCAKSTAYFDYWGQGTLVTVSS VL: DIQMTQSPSSLSASVGDRVTITCRASQSISSYLNWYQQKPGKAPKLLIYAASALQSGVPSRFSGSGSGTDFTLTISSLQPEDFATYYCQQAYYDPTTFGQGTKVEIK | no binding (tested: starting from 200 µg/mL) | no binding (tested: starting from 200 µg/mL) | no binding (tested: starting from 200 µg/mL) | no binding (tested: starting from 200 µg/mL) | no binding (tested: starting from 200 µg/mL) |
